Key:
[1] = system: rat cardiomyocytes (H9c2 cells); experiment: SA-β-Gal staining, H2O2-induced senescence, pre-administration (Example 6); settings: pre-administration 24 hours, then 400 µM H2O2 48 hours; FIG. 14
Description: (§1) The workflow for SA-β-Gal staining of the cells is as follows: For the cells cultured in a 6-well plate, a cell culture solution was sucked away, the cells were washed 1 time with PBS, and 1 mL of an SA-β-Gal staining fixative was added for fixation at room temperature for 15 minutes. For other types of culture plates, the dosages of the fixative and subsequent solutions were used in operation with reference to this ratio. The cell fixative was sucked away, and the cells were washed 3 times with PBS, for 3 minutes each time. PBS was sucked away, and 1 mL of a staining working solution was added to each well. A method for formulating the staining working solution is as follows: A β-galactosidase staining solution A (10 µL), a β-galactosidase staining solution B (10 µL), a β-galactosidase staining solution C (930 µL), and an X-Gal solution (50 µL) were used. The cells were incubated overnight at 37°C, and the 6-well plate was sealed with a parafilm or a plastic wrap to prevent evaporation. Photographing was performed for record using a 20× objective under a microfluidic live cell real-time analysis system (Thermo), cell counting was performed using ImageJ software (National Institutes of Health, v 1.8.0), and ANOVA data analysis of multiple groups (mean ± SD) was performed using Graphpad Prism software (GraphPad Software, v 9.0.0).
Culture conditions for rat cardiomyocytes (H9c2 cells) are as follows: The cells were cultured in a high-glucose DMEM culture medium containing 10% FBS and passaged and seeded when cultured to a density of 70% to 80% in a culture dish. The cells were washed 1 time with PBS, 0.25% trypsin was added for digestion for 2-3 minutes, and a high-glucose DMEM culture medium containing 10% FBS was added to terminate the digestion. The cells were pipetted to be detached, collected into a 15 mL centrifuge tube, and centrifuged at 1,000 rpm for 5 minutes. The supernatant was discarded, a new ECM culture medium was added, and the cells were pipetted uniformly, seeded into a 12-well or 24-well plate (at a density of 70% to 80%), and cultured in a 5% CO2 incubator at 37°C. After cell adherence, the next operation was performed.
The anti-aging activity of drugs was detected in the H9c2 cells. In the H9c2 cells, stimulation was performed with 400 µM H2O2 for 48 hours for modeling. […] The pharmacological activity of DNJ or its derivatives DNJ-1, DNJ-3a, DNJ-3b, and DNJ-5a was detected in the method of pre-administration treatment for 24 hours.

[2] = system: human umbilical vein endothelial cells (Huvec cells); experiment: SA-β-Gal staining, H2O2-induced senescence, post-modeling administration (Example 3); settings: 30 µM, added after stimulation with H2O2 for 24 hours; FIG. 11
Description: Culture conditions for human umbilical vein endothelial cells (Huvec cells) are as follows: The Huvec cells were cultured in an ECM culture medium (SclenCell) and passaged and seeded when cultured to a density of 70% to 80% in a culture dish. The cells were washed 1 time with PBS, 0.25% trypsin (Gibco) was added for digestion for 2-3 minutes, and then an ECM culture medium was added to terminate the digestion. The cells were pipetted to be detached, collected into a 15 mL centrifuge tube, and centrifuged at 1,000 rpm for 5 minutes. The supernatant was discarded, a new ECM culture medium was added, and the cells were pipetted uniformly, seeded into a 12-well or 24-well plate (at a density of 70% to 80%), and cultured in a 5% CO2 incubator at 37°C. After cell adherence, the next operation was performed.
Working concentrations of each drug and modeling agent: The concentrations of DNJ, DNJ-1, DNJ-3a, DNJ-3b, DNJ-5a, and NMN were all 30 µM; and the concentration of the modeling agent, H2O2, was 200 µM.
as §1
A basic method refers to Example 1, with differences in the administration method as follows: after inducing by H2O2 and constructing a human umbilical vein endothelial cell senescence model, treatment with DNJ or its derivatives was performed separately, and the anti-aging activity of drugs was detected.

[3] = system: human umbilical vein endothelial cells (Huvec cells); experiment: SA-β-Gal staining, replicative senescence by continuous passage (Example 5); settings: 30 µM DNJ 24 hours; cells of the 6th, 9th, and 12th generations; compared with an untreated group; FIG. 13
Description: as §1, with “Photographing was performed for record using a 20× objective under a microfluidic live cell real-time analysis system (Thermo), cell counting was performed using ImageJ software (National Institutes of Health, v 1.8.0), and ANOVA data analysis of multiple groups (mean ± SD) was performed using Graphpad Prism software (GraphPad Software, v 9.0.0).” left out
The anti-aging activity of drugs was detected in a replicative senescence model of human umbilical vein endothelial cells induced by continuous passage. […]

[4] = system: doxorubicin (Dox)-induced aging mouse model; experiment: Dox-induced aging mouse model, physical state and SA-β-Gal staining of frozen organ sections (Example 10); settings: DNJ given simultaneously with intraperitoneal Dox for one week, FIG. 18
Description: An effect of drugs in delaying aging in vivo was detected using a mouse model. Male C57BL/6J mice were selected in the experiment, and randomly divided into a normal group (Control), an aging group (Aging), and an administration group (Aging + DNJ). Dox was intraperitoneally injected into the mice continually for one week to construct an aging mouse model; and the administration group was treated with DNJ simultaneously during the construction of aging mice. The states of the mice were recorded, the mice were sacrificed after one week, and organs such as livers and kidneys were immediately collected for subsequent detection. A cellular senescence β-galactosidase staining kit (Beyotime) was used. Frozen sections were fixed with a fixative for 15 minutes, rinsed 3 times with PBS, and incubated in an SA-β-gal solution at 37°C in the dark for 16-18 hours. The proportion of a stained area was quantitatively determined using ImageJ (NIH) software.

SMILES: OC[C@H]1NC[C@H](O)[C@@H](O)[C@@H]1O
- number of SA-β-Gal staining-positive H9c2 cells [1]: reduce
- expression of SA-β-Gal and cell senescence [2]: significantly reduce
- number of SA-β-Gal staining-positive cells and the degree of senescence [3]: significantly reduces
- physical states, motor abilities, and the like of the mice [4]: significantly improved
- number of SA-β-Gal staining-positive cells in organs such as kidneys ([4]; frozen sections): significantly reduced

From patent EP4837574A1, “USE OF DNJ OR DERIVATIVE THEREOF IN PREPARING ANTI-SENESCENCE DRUG” (dated 2026)
